Measurements: patent US20250084183A1, “ENGINEERED COMPOSITIONS FOR BONE-TARGETED THERAPY” (William Marsh Rice University, priority 2021, published 2025)

Assays:
[1] = system: SK-BR-3 cells; assay: In vitro cytotoxicity (MTT) against SK-BR-3; type: cell-based
Method: BT474, and MDA-MB-468 cells at 2×10^3 cells/well into 96-well plates. […] 20 AL of 3-(4,5-dimethylthiazol-2-yl)-2,5-diphenyltetrazolium bromide (MTT) solution (5 mg/mL) was then added to each well and incubated for another 4 h. Medium was aspirated and 150 AL DMSO was added to each well. The absorbance at 565 nm was measured by microplate reader (Infinite M Plex by Tecan) to quantify living cells.

[2] = Biodistribution of Cy7.5-labeled antibodies in mice bearing MDA-MB-361 tumors; type: in vivo, athymic nude mice; conditions: 72 h and 120 h after retro-orbital injection, sulfo-Cy7.5 label
Method: In vivo Distribution of Bone-Targeting Antibodies. […] 72 h and 120 h after antibody infusion, the major organs were collected and imaged for antibody distribution. […] Moreover, larger quantities of bone-targeting antibodies were present in tumor-bearing right leg bones compared to left healthy bone, likely due to L-Asp6 peptide-mediated targeting to the bone resorption niche. […] This effect has the potential to enhance antitumor activity at the tumor site, while at the same time decreasing systemic toxicity.
Biodistribution. Female athymic nude mice were injected para-tibia with MDA-MB-361 cells (2× 10^5 cells/animal). […] After 72 h and 120 h injection, the mice were imaged using IVIS. 72 h and 120 h injection, the mice were killed, and major organs including heart, liver, spleen, kidney, lung, and bone tumor tissue were removed. The fluorescence intensity in organs and tumor bearing tibiae were observed using IVIS.

[3] = HA binding assay; conditions: for Percentage of the bound fraction: antibodies 1 mg/ml, 20 mg/ml hydroxyapatite, 37° C., 9 h, mean ± SEM
[4] = system: MDA-MB-361 breast cancer cells; assay: MDA-MB-361 bone metastasis xenograft model (para-tibial injection); conditions: for delay in tumor growth: 1 mg/kg retro-orbital twice a week; for Osteoclast number, significance vs Control / Osteoclast number, significance vs Tras: TRAP-stained tibia sections; for Osteoclast number, significance vs Control / Osteoclast number, significance vs Tras / Serum Calcium, significance vs Control / Serum Calcium, significance vs Tras / Serum TRACP 5b, significance vs Control / Serum TRACP 5b, significance vs Tras: end of experiment; for Osteoclast number, significance vs Control / Osteoclast number, significance vs Tras / Serum Calcium, significance vs Control / Serum Calcium, significance vs Tras / Serum TRACP 5b, significance vs Control / Serum TRACP 5b, significance vs Tras / Trabecular bone parameters BMD, significance vs Control / Trabecular bone parameters BMD, significance vs Tras / Trabecular bone parameters BS/BV, significance vs Control / Trabecular bone parameters BS/BV, significance vs Tras / Trabecular bone parameters BV, significance vs Control / Trabecular bone parameters BV, significance vs Tras / Trabecular bone parameters BV/TV, significance vs Control / Trabecular bone parameters BV/TV, significance vs Tras / Trabecular bone parameters Tb. Th, significance vs Control / Trabecular bone parameters Tb. Th, significance vs Tras: one-way ANOVA; for Survival, significance vs Control: endpoint BLI intensity over 10^7, log-rank test; for Trabecular bone parameters BMD, significance vs Control / Trabecular bone parameters BMD, significance vs Tras / Trabecular bone parameters BS/BV, significance vs Control / Trabecular bone parameters BS/BV, significance vs Tras / Trabecular bone parameters BV, significance vs Control / Trabecular bone parameters BV, significance vs Tras / Trabecular bone parameters BV/TV, significance vs Control / Trabecular bone parameters BV/TV, significance vs Tras / Trabecular bone parameters Tb. Th, significance vs Control / Trabecular bone parameters Tb. Th, significance vs Tras: microCT, Tukey; for Survival, significance vs Tras: mouse, in vivo; for BLI Progression, significance vs Control / BLI Progression, significance vs Tras: whole body BLI over the course of the experiment, two-way ANOVA

Substance: Tras-CT: trastuzumab with L-Asp6 peptide at C-terminus (CT, G449); SEQ ID NOs: 7-8
EC50 [1]: 5.97 ± 5.64 nM | intensity of the interosseous fluorescence signal vs Tras injected mice [2]: stronger | HA binding capacity, rank among the three species containing single L-Asp6 peptides [3]: highest HA binding capacity | Percentage of the bound fraction [3]: 71.9 ± 2.5% | delay in tumor growth [4]: 27.5 days | Osteoclast number, significance vs Control [4]: **** (**** P < 0.0001) | Osteoclast number, significance vs Tras [4]: ns (ns represents P > 0.05) | Serum Calcium, significance vs Control [4]: ns (ns represents P > 0.05) | Serum Calcium, significance vs Tras [4]: ns (ns represents P > 0.05) | Serum TRACP 5b, significance vs Control [4]: * (* P < 0.05) | Serum TRACP 5b, significance vs Tras [4]: ns (ns represents P > 0.05) | Survival, significance vs Control [4]: ** (** P < 0.01) | Trabecular bone parameters BMD, significance vs Control [4]: * (*P < 0.05) | Trabecular bone parameters BMD, significance vs Tras [4]: ** (**P < 0.001) | Trabecular bone parameters BS/BV, significance vs Control [4]: ns (ns represents P > 0.05) | Trabecular bone parameters BS/BV, significance vs Tras [4]: ns (ns represents P > 0.05) | Trabecular bone parameters BV, significance vs Control [4]: ** (**P < 0.001) | Trabecular bone parameters BV, significance vs Tras [4]: ns (ns represents P > 0.05) | Trabecular bone parameters BV/TV, significance vs Control [4]: ns (ns represents P > 0.05) | Trabecular bone parameters BV/TV, significance vs Tras [4]: ns (ns represents P > 0.05) | Trabecular bone parameters Tb. Th, significance vs Control [4]: ** (**P < 0.001) | Trabecular bone parameters Tb. Th, significance vs Tras [4]: ns (ns represents P > 0.05) | Survival, significance vs Tras [4]: ns (key: **** P < 0.0001; *** P < 0.001; ** P < 0.01; * P < 0.05; ns represents P > 0.05) | BLI Progression, significance vs Control [4]: **** (**** P < 0.0001) | BLI Progression, significance vs Tras [4]: ns (ns represents P > 0.05)

Percentage of the bound fraction [3]: 63.9 ± 1.2%
Substance: Tras-CH1: trastuzumab with L-Asp6 peptide inserted in heavy chain (CH1, A165); SEQ ID NOs: 5-6

Percentage of the bound fraction [3]: 68.3 ± 4.6%
Substance: Tras-LC: trastuzumab with L-Asp6 peptide inserted in light chain (LC, A153); SEQ ID NOs: 3-4

Substance: Tras-LC/CH1/CT: trastuzumab with three L-Asp6 peptide sequences (LC, CH1, CT); SEQ ID NOs: 15-16
EC50 [1]: 21.1 ± 20.2 nM | intensity of the interosseous fluorescence signal vs Tras injected mice [2]: stronger | Percentage of the bound fraction [3]: 80.3 ± 1.1% | delay in tumor growth [4]: 18.9 days | Osteoclast number, significance vs Control [4]: **** (**** P < 0.0001) | Osteoclast number, significance vs Tras [4]: ns (ns represents P > 0.05) | Serum Calcium, significance vs Control [4]: ns (ns represents P > 0.05) | Serum Calcium, significance vs Tras [4]: ns (ns represents P > 0.05) | Serum TRACP 5b, significance vs Control [4]: * (* P < 0.05) | Serum TRACP 5b, significance vs Tras [4]: ns (ns represents P > 0.05) | Survival, significance vs Control [4]: * (* P < 0.05) | Trabecular bone parameters BMD, significance vs Control [4]: ns (ns represents P > 0.05) | Trabecular bone parameters BMD, significance vs Tras [4]: * (*P < 0.05) | Trabecular bone parameters BS/BV, significance vs Control [4]: ns (ns represents P > 0.05) | Trabecular bone parameters BS/BV, significance vs Tras [4]: ns (ns represents P > 0.05) | Trabecular bone parameters BV, significance vs Control [4]: ** (**P < 0.001) | Trabecular bone parameters BV, significance vs Tras [4]: * (*P < 0.05) | Trabecular bone parameters BV/TV, significance vs Control [4]: * (*P < 0.05) | Trabecular bone parameters BV/TV, significance vs Tras [4]: ns (ns represents P > 0.05) | Trabecular bone parameters Tb. Th, significance vs Control [4]: ** (**P < 0.001) | Trabecular bone parameters Tb. Th, significance vs Tras [4]: ns (ns represents P > 0.05) | Survival, significance vs Tras [4]: ns (key: **** P < 0.0001; *** P < 0.001; ** P < 0.01; * P < 0.05; ns represents P > 0.05) | BLI Progression, significance vs Control [4]: **** (**** P < 0.0001) | BLI Progression, significance vs Tras [4]: ns (ns represents P > 0.05)

Each block holds one substance with its values, some of them ahead of it.
